From article PMC9781268, “2-Arylpropionic Acid Pyrazolamides as Cannabinoid CB2 Receptor Inverse Agonists Endowed with Anti-Inflammatory Properties” (Pharmaceuticals, 2022)

Chains of the proteins cited; added tags and fusions are not shown.
UniProt P34972, whole entry: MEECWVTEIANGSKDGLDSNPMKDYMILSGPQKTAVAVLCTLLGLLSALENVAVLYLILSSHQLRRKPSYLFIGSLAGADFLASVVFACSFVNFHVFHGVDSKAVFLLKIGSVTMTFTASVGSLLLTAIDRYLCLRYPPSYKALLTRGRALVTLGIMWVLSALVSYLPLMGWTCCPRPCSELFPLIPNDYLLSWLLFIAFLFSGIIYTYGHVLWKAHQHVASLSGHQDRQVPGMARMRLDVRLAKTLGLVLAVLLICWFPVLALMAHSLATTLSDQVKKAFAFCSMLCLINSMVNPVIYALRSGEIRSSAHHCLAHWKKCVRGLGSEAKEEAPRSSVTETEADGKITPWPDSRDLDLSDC

What was measured:
[1] = Parallel artificial membrane permeability assay, gastrointestinal (PAMPA-GI / PAMPA-GTI); conditions: Table S1, PAMPA-GTI
[2] = target: human CB2 (Homo sapiens, UniProt P34972); test: Agonist activity, cAMP in CB2-transfected CHO cells; format: cell-based; parameters: host or cells: CHO cells; conditions: CB2-expressing CHO cells, 100 nM, 10 μM forskolin

Structure (SMILES)	Classification [1]	Pe Exp [1]	Fa ([1]; absorbed fraction)	Effect on cAMP production by forskolin [2]
O=C(O)c1cc(/N=N/c2ccc(S(=O)(=O)Nc3ccccn3)cc2)ccc1O [Sulfassalazine, reference compound]	LOW (low intestinal permeability: <29%)	0,45 10-6 cm/s	15,5%	–
Cc1c(C(=O)c2cccc3ccccc23)c2cccc3c2n1[C@H](CN1CCOCC1)CO3 [WIN 55212-2, reference compound]	–	–	–	completely abolished the production of cAMP by forskolin
